How the values were obtained:
[1] = Microsomal stability in rat liver microsomes assessed as extraction ratio in presence of NADPH for 0 to 40 mins by LC-MS/MS analysis; assay type: ADME, Microsome; settings: time 0-40 min
[2] = Microsomal stability in dog liver microsomes assessed as extraction ratio in presence of NADPH for 0 to 40 mins by LC-MS/MS analysis; assay type: ADME, Canis lupus familiaris, Microsome; settings: time 0-40 min
[3] = Inhibition of ABL (unknown origin) in presence of ATP Km treated at 2 hrs followed by IGF1 ligand addition for 15 mins by ELISA analysis; set-up: species or system Homo sapiens
[4] = Inhibition of FGFR1/2 (unknown origin) in presence of ATP Km treated at 2 hrs followed by IGF1 ligand addition for 15 mins by ELISA analysis; set-up: species or system Homo sapiens
[5] = Inhibition of PKA (unknown origin) in presence of ATP Km treated at 2 hrs followed by IGF1 ligand addition for 15 mins by ELISA analysis; set-up: species or system Homo sapiens
[6] = Inhibition of p70S6K (unknown origin) in presence of ATP Km treated at 2 hrs followed by IGF1 ligand addition for 15 mins by ELISA analysis; set-up: species or system Homo sapiens

An ERH [1] of 0.41, an ERH [2] of 0.49 and an IC50 [3] greater than 10 µM were found for `C[C@]1(O)C[C@@H](c2nc(-c3ccc4ccc(-c5ccccc5)nc4c3)c3c(N)nccn32)C1` [LINSITINIB] in this work. The IC50 [4] was greater than 10 µM, the IC50 [5] was greater than 10 µM and the IC50 [6] was greater than 10 µM.
